Test system: Kidney
Experiment: Induction of HO-1 protein level in po dosed Wistar rat kidney measured at 6 hrs by ELISA
Type: ADME, organism-based
Details: in vivo, dose 0.1-3 mg/kg

Row | Activity | SMILES
1 | Dose-Dependent Effect | Cc1ccc([C@H](F)C(=O)N[C@H](c2ccc(C)c(OCC3(C#N)CC3)c2)[C@@H](C)C(=O)O)cc1
2 | Dose-Dependent Effect | CCOc1cccnc1Cc1ccc([C@H](F)C(=O)N[C@H](c2ccc(C)cc2)[C@@H](C)C(=O)O)cc1

Source: ChEMBL document CHEMBL5518210 (J Med Chem, 2024)
